The experiment concerns SKBR3 breast cancer cells rich in HER2 antigen. Briefly: ADCC biological activity reporter gene assay (Jurkat-hFcγRIIIa-NFAT effector cells, luciferase). Type of experiment: cell-based. Particulars: compared with the validated purified Anti-HER2 IgG1 (h4D5) recombinant antibody protein; 24 hours of reaction. As for the experimental part: In order to verify that the Anti-HER2 IgG1 (h4D5) antibody produced by the expression vector is a functional antibody, an analysis test was performed with antibody-dependent cell-mediated cytotoxicity (ADCC).
Jurkat-hFcγRIIIa-NFAT gene transgenic cells was used as effector cells and SKBR3 breast cancer cells rich in HER2 antigen was used as target cells in ADCC biological activity reporter gene detection system (Promega, #G9790). In addition, the ADCC biological activity detection of anti-HER2 monoclonal antibody, Anti-HER2 IgG1, was carried out by luminescent luciferase detection system (BioGlo™ Luciferase Assay system).
For the cell line C8 obtained by screening in Example 11 (the expression vector pcDNA3.1-CMV-GOI1-furin-p2A-GOI2-IRES-cgFth1 (V3) was used), the recombinant antibodies produced under the conditions of adding iron ions (250 Anti-HER2 IgG1_V3_C8-FAC-250 μM FAC+) and without adding iron ions (Anti-HER2 IgG1_V3_C8) during the screening process were tested. The recombinant antibody (Anti-HER2 IgG1_V2) produced by the expression vector pBudCE4.1-CMV-GOI1-cgFth1-SV40/EF1α-GOI2(V2) was also evaluated. […]
On the technique in general: In a reporter assay the amount or activity of a reporter protein is the signal.

On to “Anti-HER2 IgG1_V3_C8-FAC-250 μM FAC+: Anti-HER2 IgG1 (h4D5) recombinant antibody from cell line C8 (V3 vector) produced with iron ions added (250 μM FAC)”, for which the ADCC effect result is “had the same effect”.

The values above are taken from patent US12275953B2, “Methods for screening host cells expressing target proteins” (Industrial Technology Research Institute, priority 2020, dated 2025).
